Experimental findings from PMC10920384 (Heliyon, 2024) are described below.

Protein sequences, listed by entry. Tags and fused reporters are not part of them. Lines headed by an entry give the natural chain unless they say otherwise; changes in a name come on top.
UniProt P22411: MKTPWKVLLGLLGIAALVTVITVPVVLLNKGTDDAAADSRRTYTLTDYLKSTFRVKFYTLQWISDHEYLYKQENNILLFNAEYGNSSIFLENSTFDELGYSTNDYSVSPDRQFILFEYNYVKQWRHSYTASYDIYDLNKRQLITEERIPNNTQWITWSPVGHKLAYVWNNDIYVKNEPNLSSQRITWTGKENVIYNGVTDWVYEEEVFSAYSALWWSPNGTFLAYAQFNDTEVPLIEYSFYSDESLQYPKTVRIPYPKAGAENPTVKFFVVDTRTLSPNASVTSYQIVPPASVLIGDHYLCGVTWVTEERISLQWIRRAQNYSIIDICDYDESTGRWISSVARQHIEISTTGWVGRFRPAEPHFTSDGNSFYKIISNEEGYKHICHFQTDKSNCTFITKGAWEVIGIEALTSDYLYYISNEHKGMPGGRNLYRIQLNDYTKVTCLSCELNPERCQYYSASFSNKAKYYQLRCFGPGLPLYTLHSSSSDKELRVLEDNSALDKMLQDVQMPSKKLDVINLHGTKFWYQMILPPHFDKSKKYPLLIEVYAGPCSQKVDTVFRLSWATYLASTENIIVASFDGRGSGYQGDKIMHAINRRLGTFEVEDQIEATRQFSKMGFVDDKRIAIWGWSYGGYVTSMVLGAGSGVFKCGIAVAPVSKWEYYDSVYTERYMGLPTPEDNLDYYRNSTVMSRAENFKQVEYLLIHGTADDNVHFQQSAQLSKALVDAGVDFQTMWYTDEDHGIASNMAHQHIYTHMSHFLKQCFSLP

The target in this assay is dipeptidyl peptidase-IV (DPP-IV) from porcine kidney (Sus scrofa, UniProt P22411). The assay can be described thus: Dipeptidyl peptidase-IV. The class given is biochemical.

pIC50: −log10 of the molar value.

As a reminder, the pIC50 is the negative decadic logarithm of the IC50, by convention in mol/L. Lower therefore signals a high IC50.

Compound `CC[C@H](C)[C@H](N)C(=O)N1CCC[C@H]1C(=O)N[C@H](C(=O)O)[C@@H](C)CC` [Diprotin A, diprotin A, reference compound] showed a pIC50 of 4.48.
